ChEMBL document CHEMBL3603800, “Novel methyl substituted 1-(5,6-dihydro-[1,2,4]triazolo[4,3-a]pyrazin-7(8H)-yl)methanones are P2X7 antagonists” (Bioorg Med Chem Lett, 2015)

Target: T1, P2X purinoceptor 7 (Rattus norvegicus, UniProt Q64663)
T1 sequence (Q64663 whole entry): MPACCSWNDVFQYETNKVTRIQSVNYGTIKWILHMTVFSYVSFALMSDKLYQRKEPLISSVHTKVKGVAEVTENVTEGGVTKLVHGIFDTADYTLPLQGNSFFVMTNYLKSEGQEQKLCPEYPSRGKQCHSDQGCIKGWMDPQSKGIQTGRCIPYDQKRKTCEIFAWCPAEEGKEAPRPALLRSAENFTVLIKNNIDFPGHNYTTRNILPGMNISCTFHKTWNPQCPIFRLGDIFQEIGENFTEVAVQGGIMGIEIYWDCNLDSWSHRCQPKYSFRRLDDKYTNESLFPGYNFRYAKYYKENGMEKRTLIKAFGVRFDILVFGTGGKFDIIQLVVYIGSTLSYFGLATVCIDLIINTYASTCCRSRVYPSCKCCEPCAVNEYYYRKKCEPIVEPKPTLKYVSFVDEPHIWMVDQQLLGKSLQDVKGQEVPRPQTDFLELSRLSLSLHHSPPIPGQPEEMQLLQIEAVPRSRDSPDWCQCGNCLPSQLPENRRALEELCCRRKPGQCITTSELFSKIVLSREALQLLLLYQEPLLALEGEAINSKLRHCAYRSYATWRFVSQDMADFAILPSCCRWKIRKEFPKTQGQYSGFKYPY
Assay: Antagonist activity at rat P2X7 receptor assessed as inhibition of ATP-induced Ca2+ flux by FLIPR assay

CC1c2nnc(-c3ccc(F)cc3)n2CCN1C(=O)c1cccc(C(F)(F)F)c1Cl (racemic)
IC50: 7.45 µM
